Results on one compound are retold here after PubChem BioAssay AID588524 (Sanford-Burnham Center for Chemical Genomics, 2011).

By UniProt entry, the sequences of proteins in these tests, tags left out.
UniProt O14727, whole entry: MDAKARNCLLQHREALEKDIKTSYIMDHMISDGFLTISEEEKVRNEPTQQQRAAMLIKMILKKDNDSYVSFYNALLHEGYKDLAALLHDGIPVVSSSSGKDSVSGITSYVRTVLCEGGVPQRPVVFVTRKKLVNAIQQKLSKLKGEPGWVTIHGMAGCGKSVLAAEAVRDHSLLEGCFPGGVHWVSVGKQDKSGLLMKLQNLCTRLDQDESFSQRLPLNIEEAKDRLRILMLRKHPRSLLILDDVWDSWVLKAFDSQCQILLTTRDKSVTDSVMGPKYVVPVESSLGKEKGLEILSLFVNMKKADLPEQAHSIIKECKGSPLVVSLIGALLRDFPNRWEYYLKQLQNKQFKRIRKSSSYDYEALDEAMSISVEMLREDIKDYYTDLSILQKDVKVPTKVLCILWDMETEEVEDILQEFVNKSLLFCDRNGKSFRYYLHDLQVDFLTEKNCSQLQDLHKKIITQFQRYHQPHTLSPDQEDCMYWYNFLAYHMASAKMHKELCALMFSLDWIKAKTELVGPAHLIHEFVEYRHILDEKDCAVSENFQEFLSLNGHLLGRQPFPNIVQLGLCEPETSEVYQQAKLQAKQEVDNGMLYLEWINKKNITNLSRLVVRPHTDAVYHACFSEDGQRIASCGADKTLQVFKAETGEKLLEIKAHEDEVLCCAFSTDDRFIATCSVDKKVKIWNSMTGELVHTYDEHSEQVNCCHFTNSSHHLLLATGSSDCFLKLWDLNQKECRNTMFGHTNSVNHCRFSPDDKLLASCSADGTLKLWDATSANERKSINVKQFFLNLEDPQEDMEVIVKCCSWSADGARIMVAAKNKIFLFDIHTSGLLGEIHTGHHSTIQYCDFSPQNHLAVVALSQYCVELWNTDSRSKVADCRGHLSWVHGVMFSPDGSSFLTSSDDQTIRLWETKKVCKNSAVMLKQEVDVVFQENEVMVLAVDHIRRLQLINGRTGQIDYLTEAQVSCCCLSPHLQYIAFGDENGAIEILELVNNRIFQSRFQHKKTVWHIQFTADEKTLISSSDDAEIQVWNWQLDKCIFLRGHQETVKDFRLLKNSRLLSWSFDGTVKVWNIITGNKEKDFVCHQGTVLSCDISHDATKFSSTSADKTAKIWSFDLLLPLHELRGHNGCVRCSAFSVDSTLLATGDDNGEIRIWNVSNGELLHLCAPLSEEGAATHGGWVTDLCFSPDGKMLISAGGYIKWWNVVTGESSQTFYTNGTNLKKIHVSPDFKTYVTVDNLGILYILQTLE

This test concerns the target Apoptotic protease-activating factor 1 (Homo sapiens) (UniProt O14727). As to the kind of experiment: Apaf-1 inhibitor potency, dose response, fluorescence, uHTS hits (AID 588524). The settings on record: Apaf-1 apoptosome assay, fluorescence read-out.

As for `CC1=C2N=C(C=C3N=C(C(C)=C4[N-][C@@](C)([C@@H]5N=C1[C@](C)(CCC(=O)NC[C@@H](C)OP(=O)([O-])O[C@H]1[C@@H](O)[C@@H](n6cnc7cc(C)c(C)cc76)O[C@@H]1CO)[C@H]5CC(N)=O)[C@@](C)(CC(N)=O)[C@@H]4CCC(N)=O)[C@@](C)(CC(N)=O)[C@@H]3CCC(N)=O)C(C)(C)[C@@H]2CCC(N)=O.[C-]#N.[Co+3]`, the IC50 (commonly the point on the concentration scale where inhibition reaches its midpoint) was 443 nM.
